Reference: BindingDB's records for patent US11980598 (Beijing Greatway Pharmaceutical Technology Co., 2024)

The chains behind the UniProt entries cited, without tags or fusion partners. Where a name states a change or a piece, a line headed by the entry shows the natural chain unless it says otherwise.
UniProt P28335: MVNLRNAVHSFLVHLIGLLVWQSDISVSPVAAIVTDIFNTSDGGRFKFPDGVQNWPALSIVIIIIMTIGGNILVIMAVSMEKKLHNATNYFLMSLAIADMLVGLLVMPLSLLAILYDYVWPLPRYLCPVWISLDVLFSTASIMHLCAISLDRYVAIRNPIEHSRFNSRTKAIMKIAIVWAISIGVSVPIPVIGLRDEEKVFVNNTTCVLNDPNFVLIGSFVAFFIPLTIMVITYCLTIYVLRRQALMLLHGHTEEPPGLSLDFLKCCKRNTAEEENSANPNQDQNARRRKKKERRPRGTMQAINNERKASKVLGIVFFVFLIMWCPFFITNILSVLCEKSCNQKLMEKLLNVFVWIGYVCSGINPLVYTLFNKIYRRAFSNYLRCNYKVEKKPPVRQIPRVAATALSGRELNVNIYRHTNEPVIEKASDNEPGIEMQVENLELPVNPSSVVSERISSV

Target: 5-hydroxytryptamine receptor 2C (Homo sapiens, UniProt P28335)
Experiment: 5-HT2C Receptor Binding Test
Description: The test tubes were placed under a reaction condition of 25° C. 50 μg of the receptor membrane protein 5-HT2C was added to all the tubes. In non-specific binding tubes, 50 μL of a corresponding unlabeled ligand 5-HT at a concentration of 10−4 M was added to a final concentration of 10 μM, and pre-reacted for 30 minutes. In test tubes, 30 μL of test example compounds (a concentration of 104-10−10 M) were added, respectively. All the tubes were added with 40 μL of [3H]-LSD (lysergic acid diethylamide), respectively. The volume in all reaction tubes was made up to 300 μL with Tris-HCl buffer (50 mM Tris-HCl, 1 mM EDTA, 5 mM MgCl2, 0.1% NaN3, 0.1 mM PMSF, pH 7.4); the reaction was carried out at 25° C. for 1 hour; the mixture was then spotted on a type 49 glass fiber filter paper, suction filtered under a vacuum, washed 3 times with 2 mL of ice-cold Tris-HCl buffer (50 mM Tris-HCl Buffer, 1 mM EDTA, 5 mM MgCl2, 0.1% NaN3, pH7.4), and dried with suction. The filter paper was taken out and dried by baking, and then placed in a scintillation bottle. 1 mL of the scintillation liquid was added, and the radioactive intensity was measured by a liquid scintillation counter

## COc1ccc2cccc(CCNC(C)=O)c2c1 [US11980598, Compound Ago]
  IC50: 4.52 nM
